Earlier results as cited in patent publication US20110008439A1, “DULOXETIN COMPOSITION” (priority 2006, published 2011).

In the case of `CNCC[C@H](Oc1cccc2ccccc12)c1cccs1.Cl` [Duloxetine hydrochloride, (+)-(S)-N-methyl-γ-(1-naphthyloxy)-2-thiophenepropylamine hydrochloride], the Solubility in water is given as “slightly soluble in water”.
